The results in this text go back to ChEMBL document CHEMBL2311294, “Design, synthesis and bioevalution of novel benzamides derivatives as HDAC inhibitors” (Bioorg Med Chem Lett, 2013).

By UniProt entry, the sequences of proteins in these tests, tags left out.
UniProt Q13547, whole entry: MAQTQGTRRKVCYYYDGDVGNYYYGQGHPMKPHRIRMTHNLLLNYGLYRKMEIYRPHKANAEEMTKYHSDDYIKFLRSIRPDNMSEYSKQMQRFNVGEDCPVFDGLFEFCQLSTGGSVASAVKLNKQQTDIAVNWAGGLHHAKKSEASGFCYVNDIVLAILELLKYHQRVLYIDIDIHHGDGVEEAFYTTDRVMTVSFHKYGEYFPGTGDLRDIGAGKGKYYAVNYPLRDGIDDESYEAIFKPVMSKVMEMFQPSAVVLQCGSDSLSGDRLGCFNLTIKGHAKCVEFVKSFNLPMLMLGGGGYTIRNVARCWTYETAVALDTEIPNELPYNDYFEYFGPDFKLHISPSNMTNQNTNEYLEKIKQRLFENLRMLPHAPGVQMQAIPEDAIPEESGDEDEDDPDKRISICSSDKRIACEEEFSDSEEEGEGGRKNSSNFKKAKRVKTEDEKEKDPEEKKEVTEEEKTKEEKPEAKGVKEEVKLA

The target in this assay is Histone deacetylase 1 (Homo sapiens, UniProt Q13547). Put plainly: Ratio of MGCD0103 IC50 to compound IC50 for HDAC1 (unknown origin).

On to `Nc1ccccc1NC(=O)c1ccc(CNc2nccc(-c3cnc4ccccn34)n2)cc1`, for which the Ratio IC50 was 3.
